# In ChEMBL document CHEMBL3352492, “Selenorhodamine photosensitizers for photodynamic therapy of P-glycoprotein-expressing cancer cells” (J Med Chem, 2014):
# Amino acid sequences for entries named in this document (tags omitted).
# UniProt P08183, whole entry: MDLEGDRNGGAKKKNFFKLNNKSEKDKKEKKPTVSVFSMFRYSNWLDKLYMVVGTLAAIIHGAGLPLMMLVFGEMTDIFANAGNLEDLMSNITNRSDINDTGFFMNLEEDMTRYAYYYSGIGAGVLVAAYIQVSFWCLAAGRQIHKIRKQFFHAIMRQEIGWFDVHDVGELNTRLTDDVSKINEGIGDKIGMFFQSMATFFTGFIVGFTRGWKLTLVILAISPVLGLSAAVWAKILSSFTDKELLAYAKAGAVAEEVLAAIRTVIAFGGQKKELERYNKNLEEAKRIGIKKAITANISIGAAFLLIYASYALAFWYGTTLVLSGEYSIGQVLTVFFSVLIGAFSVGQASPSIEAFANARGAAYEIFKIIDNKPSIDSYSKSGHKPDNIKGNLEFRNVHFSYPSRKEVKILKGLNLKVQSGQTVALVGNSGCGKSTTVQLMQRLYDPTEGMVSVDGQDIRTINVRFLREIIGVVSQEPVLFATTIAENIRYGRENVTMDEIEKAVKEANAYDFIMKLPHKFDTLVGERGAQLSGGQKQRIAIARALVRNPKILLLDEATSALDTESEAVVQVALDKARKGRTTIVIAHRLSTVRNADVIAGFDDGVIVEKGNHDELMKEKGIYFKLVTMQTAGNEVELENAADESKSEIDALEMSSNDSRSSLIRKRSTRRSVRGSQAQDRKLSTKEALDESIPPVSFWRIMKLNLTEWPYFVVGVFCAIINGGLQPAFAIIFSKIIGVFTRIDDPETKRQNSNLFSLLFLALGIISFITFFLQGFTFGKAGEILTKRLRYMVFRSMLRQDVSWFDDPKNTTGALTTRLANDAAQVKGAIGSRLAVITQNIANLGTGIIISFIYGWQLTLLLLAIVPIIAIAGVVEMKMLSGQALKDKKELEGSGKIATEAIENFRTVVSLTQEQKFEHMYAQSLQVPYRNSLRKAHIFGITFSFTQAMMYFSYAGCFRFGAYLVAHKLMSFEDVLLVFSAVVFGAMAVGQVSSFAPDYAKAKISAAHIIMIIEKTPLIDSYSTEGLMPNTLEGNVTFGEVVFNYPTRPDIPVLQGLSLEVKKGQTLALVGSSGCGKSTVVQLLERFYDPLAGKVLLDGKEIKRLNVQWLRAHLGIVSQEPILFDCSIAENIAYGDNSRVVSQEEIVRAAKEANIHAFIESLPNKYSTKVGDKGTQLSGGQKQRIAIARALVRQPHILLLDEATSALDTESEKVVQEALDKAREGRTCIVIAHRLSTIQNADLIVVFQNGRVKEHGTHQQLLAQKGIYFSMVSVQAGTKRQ
# Target: ATP-dependent translocase ABCB1 (Homo sapiens, UniProt P08183)
smiles,measurement,value
O[C@@H](COc1cccc2ncccc12)CN1CCN([C@@H]2c3ccccc3[C@@H]3[C@H](c4ccccc42)C3(Cl)Cl)CC1,IC50,400 nM
